The structures appear in SMILES notation. Only a part of the results on these compounds is given; other tests are left out.

Chains of the proteins cited; added tags and fusions are not shown. Residues count along the entry.
UniProt P02768, 25-609 limits assumed: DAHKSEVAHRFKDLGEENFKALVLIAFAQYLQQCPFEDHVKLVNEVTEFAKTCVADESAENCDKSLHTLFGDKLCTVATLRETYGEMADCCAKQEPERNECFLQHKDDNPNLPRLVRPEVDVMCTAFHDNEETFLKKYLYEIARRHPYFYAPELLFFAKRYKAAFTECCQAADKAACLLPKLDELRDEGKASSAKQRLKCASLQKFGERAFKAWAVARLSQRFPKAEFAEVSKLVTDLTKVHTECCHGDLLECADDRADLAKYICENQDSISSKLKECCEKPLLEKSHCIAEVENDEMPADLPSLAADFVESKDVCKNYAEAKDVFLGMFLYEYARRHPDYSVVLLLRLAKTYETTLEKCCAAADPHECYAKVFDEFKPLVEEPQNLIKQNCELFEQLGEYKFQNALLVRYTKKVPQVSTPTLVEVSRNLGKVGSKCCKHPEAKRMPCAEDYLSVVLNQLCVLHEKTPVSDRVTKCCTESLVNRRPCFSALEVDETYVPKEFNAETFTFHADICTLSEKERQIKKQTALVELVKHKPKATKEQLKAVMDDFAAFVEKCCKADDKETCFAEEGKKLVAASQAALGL

The values below come from article PMC10060303, “Interactions of fentanyl with blood platelets and plasma proteins: platelet sensitivity to prasugrel metabolite is not affected by fentanyl under in vitro conditions” (2023).

For data set [1] the following is noted: cited from earlier work.
For data set [2], the target named is human serum albumin (HSA) (Homo sapiens, UniProt P02768). Put plainly: Surface plasmon resonance binding to immobilized HSA. The following applies: SPR, 25 °C, HBS-EP pH 7.4, ligand HSA.

As usually defined, the pKa is the pH at which an ionisable group is half protonated. As for `CCC(=O)N(c1ccccc1)C1CCN(CCc2ccccc2)CC1.O=C(O)CC(O)(CC(=O)O)C(=O)O`, the pKa in data set [1] is 8.43. Also, in data set [2], the KA is 2.24 ± 1.82 × 10^5 M^−1, the ka is recorded as 4.76 ± 6.62 × 10^3 M^−1 × s^−1 and the kd is given as 2.02 ± 1.41 × 10^−2 s^−1.
